Test results from US10058534B2, “Benzothiophene derivatives and compositions thereof as selective estrogen receptor degraders” (NOVARTIS AG, priority 2013, dated 2018).

Chains of the proteins cited; added tags and fusions are not shown.
UniProt P03372, whole entry: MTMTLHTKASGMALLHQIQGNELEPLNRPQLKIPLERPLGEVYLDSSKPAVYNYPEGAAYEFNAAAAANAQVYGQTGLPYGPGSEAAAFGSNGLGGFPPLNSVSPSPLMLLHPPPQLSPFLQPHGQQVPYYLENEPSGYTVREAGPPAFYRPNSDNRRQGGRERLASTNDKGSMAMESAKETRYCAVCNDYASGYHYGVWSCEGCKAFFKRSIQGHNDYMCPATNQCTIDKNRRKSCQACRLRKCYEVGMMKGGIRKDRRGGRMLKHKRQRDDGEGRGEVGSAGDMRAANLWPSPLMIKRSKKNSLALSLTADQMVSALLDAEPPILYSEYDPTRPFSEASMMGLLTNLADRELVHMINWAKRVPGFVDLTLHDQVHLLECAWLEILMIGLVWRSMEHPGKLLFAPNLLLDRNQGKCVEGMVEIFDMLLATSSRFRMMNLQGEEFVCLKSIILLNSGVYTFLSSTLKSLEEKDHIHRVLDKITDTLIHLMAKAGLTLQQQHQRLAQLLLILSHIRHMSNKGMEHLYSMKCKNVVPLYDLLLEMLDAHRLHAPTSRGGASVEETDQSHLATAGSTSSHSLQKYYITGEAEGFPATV

Experiments:
[1] = molecular target: ERα (Homo sapiens (Human), UniProt P03372); test: ERα degradation (MCF7 cells), in-cell Western; assay type: cell-based; conditions: remaining ERα protein at 10 μM ligand, relative to DMSO control
[2] = molecular target: ER (endogenous, MCF7 cells) (Homo sapiens (Human), UniProt P03372); test: ER transcription assay (MCF7 cells), ERE-luciferase reporter; assay type: cell-based; conditions: inflection point of the inhibition of transcription in MCF7 cells; 0.1 nM estradiol, 24 hours

SMILES	% ERα remaining [1]	IC50 [2]
Cc1cc(Oc2c(-c3ccc(O)cc3)sc3cc(O)ccc23)ccc1/C=C/C(=O)O [Example 56, (E)-3-(4-((6-hydroxy-2-(4-hydroxyphenyl)-benzo[b]thiophen-3-yl)oxy)-2-methylphenyl)acrylic acid]	27%	
Cc1nnc(/C=C/c2ccc(Oc3c(-c4ccccc4C(C)C)sc4cc(O)ccc34)cc2)o1 [Example 102, (E)-2-(2-isopropylphenyl)-3-(4-(2-(5-methyl-1,3,4-oxadiazol-2-yl)vinyl)phenoxy)benzo [b]thiophen-6-ol]	25%	1.2 nM
Cc1cc(F)ccc1-c1sc2cc(O)ccc2c1Oc1ccc(/C=C/c2nnc(C)n2C)cc1 [Example 106, (E)-3-(4-(2-(4,5-dimethyl-4H-1,2,4-triazol-3-yl)vinyl)phenoxy)-2-(4-fluoro-2-methylphenyl)benzo[b] thiophen-6-ol]		38 nM
CCc1cccc(CC)c1-c1sc2cc(O)ccc2c1Oc1ccc(/C=C/C(=O)O)cc1 [Example 130, (E)-3-(4-((2-(2,6-diethylphenyl)-6-hydroxybenzo[b]thiophen-3-yl)oxy)phenyl)acrylic acid]		488 nM
